In general, IC50 refers to the midpoint of a concentration-inhibition curve.

By UniProt entry, the sequences of proteins in these tests, tags left out.
UniProt P25103, whole entry: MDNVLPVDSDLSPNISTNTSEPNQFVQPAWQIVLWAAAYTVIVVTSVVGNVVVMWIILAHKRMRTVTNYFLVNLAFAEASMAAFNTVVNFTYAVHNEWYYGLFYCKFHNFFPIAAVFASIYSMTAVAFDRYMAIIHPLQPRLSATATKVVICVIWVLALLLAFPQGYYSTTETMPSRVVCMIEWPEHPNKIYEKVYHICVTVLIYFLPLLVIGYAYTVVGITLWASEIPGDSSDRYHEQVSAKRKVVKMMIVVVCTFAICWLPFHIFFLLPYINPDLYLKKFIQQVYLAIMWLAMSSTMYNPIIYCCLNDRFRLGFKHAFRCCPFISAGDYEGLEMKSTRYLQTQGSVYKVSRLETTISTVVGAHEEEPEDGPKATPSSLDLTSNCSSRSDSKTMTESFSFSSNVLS
UniProt P31645, whole entry: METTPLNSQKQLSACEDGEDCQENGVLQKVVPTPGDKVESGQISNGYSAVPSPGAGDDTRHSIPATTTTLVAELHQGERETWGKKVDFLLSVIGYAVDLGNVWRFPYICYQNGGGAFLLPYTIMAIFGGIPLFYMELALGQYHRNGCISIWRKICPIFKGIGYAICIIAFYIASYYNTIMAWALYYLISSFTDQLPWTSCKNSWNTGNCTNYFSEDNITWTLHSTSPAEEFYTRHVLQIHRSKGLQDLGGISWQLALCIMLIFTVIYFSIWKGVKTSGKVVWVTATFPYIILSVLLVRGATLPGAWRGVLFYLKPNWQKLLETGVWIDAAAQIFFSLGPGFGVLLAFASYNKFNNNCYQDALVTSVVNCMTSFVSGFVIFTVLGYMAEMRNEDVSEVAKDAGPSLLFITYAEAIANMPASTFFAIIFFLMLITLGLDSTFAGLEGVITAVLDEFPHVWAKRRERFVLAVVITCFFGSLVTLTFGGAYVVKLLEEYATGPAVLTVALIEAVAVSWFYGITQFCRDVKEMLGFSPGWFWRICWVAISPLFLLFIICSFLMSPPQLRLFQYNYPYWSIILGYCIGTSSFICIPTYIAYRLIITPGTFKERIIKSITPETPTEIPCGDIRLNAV

Among the data in patent US8071778B2, “Substituted heterocyclic ethers and their use in CNS disorders” (Bristol-Myers Squibb Company, priority 2006, dated 2011) are IC50 values, retold here.

Assay [1] deals with NK-1 (Homo sapiens, UniProt P25103). As to the kind of experiment: NK1 radioligand binding assay. Particulars: read-out: NK-1 IC50; U373 membrane preparation, [125I]Substance P.
Assay [2] deals with hSERT (Homo sapiens, UniProt P31645). Put plainly: SERT radioligand binding assay. Particulars: read-out: SERT IC50; HEK-hSERT membrane preparation, [125I]RTI-55.

`CCN(c1cc(C(F)(F)F)cc(COCC2(c3ccccc3)CCN(C)CC2)n1)C(C)C`: the IC50 in assay [1] and in assay [2] was 0.01 to 100 nM throughout.
